Measurements as given in patent publication US20140227375A1, “PIP-2 Inhibition-Based Antiviral and Anti-Hyperlipidemic Therapies” (priority 2008, published 2014).

Tested on: Huh 7.5 cells
Experiment: Alamar blue cell viability assay
Conditions: relative cell viability, electroporated cells treated with neomycin

Substance: neomycin
- concentration up to which no toxicity was observed: greater than 1 mM
